# BindingDB's records for doi:10.1038/sj.mp.4000336 (University of Toronto, 1998)
# Protein sequences, listed by entry. Tags and fused reporters are not part of them. Chains listed by the source or under a name are the forms on record and can include a tag or linker.
# UniProt P35462, as listed by the source: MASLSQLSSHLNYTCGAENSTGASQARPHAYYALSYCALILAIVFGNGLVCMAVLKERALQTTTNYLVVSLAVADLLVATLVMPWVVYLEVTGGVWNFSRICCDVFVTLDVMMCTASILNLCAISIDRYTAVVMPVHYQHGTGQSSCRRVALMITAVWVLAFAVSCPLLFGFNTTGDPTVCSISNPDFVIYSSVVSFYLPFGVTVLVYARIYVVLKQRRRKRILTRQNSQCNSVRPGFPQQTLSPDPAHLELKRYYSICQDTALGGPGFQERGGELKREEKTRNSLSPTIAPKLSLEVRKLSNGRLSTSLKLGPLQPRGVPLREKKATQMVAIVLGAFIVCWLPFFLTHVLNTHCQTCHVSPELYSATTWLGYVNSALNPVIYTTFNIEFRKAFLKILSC
# UniProt P14842, whole entry: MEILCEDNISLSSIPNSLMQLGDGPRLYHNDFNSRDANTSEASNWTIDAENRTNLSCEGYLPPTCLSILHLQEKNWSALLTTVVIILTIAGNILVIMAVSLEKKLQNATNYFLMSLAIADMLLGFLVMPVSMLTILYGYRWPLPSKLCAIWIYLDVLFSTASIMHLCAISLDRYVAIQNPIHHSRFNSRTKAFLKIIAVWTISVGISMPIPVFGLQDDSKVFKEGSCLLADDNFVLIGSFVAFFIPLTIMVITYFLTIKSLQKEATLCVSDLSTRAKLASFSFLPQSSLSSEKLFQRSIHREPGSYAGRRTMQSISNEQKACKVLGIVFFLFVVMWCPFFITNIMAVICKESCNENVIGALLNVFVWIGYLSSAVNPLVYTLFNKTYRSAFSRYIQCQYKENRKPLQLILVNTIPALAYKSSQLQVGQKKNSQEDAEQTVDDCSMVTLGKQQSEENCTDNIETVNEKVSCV
# What was measured:
# D(3) dopamine receptor = D(3) dopamine receptor (Homo sapiens, UniProt P35462)
# [1] = target: 5-hydroxytryptamine receptor 2A (Rattus norvegicus, UniProt P14842)
Ki (D(3) dopamine receptor),SMILES,Ki [1]
6.4 nM,CCN1CCC[C@H]1CNC(=O)c1cc(S(N)(=O)=O)ccc1OC [Sulpiride-S],
,O=C1NCCN1CCN1CCC(c2cn(-c3ccc(F)cc3)c3ccc(Cl)cc23)CC1 [1-[2-[4-[5-chloro-1-(4-fluorophenyl)-indol-3-yl]-1-piperidyl]ethyl]imidazolidin-2-one],0.3 nM
